One substance from article PMC11487712, “Assessment of the Interaction of Acetylcholinesterase Binding with Bioactive Compounds from Coffee and Coffee Fractions Digested In Vitro in the Gastrointestinal Tract” (2024) can be followed below.

Protein sequences, listed by entry. Tags and fused reporters are not part of them. Lines headed by an entry give the natural chain unless they say otherwise; changes in a name come on top.
UniProt O42275: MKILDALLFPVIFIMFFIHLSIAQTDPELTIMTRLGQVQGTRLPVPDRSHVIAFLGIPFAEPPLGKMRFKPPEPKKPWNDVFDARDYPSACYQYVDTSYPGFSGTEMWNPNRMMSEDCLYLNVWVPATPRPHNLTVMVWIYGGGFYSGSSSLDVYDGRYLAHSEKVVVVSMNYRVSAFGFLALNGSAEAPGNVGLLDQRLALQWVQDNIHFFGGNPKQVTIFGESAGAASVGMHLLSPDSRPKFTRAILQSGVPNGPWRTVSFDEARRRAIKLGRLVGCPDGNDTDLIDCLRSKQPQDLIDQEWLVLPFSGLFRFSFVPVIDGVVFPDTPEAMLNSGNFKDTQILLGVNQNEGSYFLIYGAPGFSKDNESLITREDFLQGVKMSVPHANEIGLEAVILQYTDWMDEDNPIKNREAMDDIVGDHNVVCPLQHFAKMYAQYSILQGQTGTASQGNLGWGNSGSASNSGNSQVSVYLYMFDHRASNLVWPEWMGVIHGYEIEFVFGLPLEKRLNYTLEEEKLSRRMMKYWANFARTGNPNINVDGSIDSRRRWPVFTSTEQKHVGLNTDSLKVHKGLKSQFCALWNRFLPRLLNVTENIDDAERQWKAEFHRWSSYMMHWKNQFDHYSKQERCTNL

For this assay, the target named is Acetylcholinesterase (AChE) from Electrophorus electricus (Electrophorus electricus, UniProt O42275). In words: isothermal titration calorimetry, Michaelis-Menten. Particulars: read-out: Ki (μmol/L) KM Ach 48.5 μmol/L; 36.6 °C; enzyme in ultrapure water; KM printed only in the header of the Ki column. (In general: In ITC the heat of successive injections is recorded.)

acetylcholine: the Km is 48.5 µmol/L.
